# According to PubChem BioAssay AID720707 (National Center for Advancing Translational Sciences (NCATS), 2013):
# Sequences of proteins named here, by UniProt entry; tags and fusion partners are left off. A change or cut given only in a name is not applied to a line headed by its entry.
# UniProt O95398: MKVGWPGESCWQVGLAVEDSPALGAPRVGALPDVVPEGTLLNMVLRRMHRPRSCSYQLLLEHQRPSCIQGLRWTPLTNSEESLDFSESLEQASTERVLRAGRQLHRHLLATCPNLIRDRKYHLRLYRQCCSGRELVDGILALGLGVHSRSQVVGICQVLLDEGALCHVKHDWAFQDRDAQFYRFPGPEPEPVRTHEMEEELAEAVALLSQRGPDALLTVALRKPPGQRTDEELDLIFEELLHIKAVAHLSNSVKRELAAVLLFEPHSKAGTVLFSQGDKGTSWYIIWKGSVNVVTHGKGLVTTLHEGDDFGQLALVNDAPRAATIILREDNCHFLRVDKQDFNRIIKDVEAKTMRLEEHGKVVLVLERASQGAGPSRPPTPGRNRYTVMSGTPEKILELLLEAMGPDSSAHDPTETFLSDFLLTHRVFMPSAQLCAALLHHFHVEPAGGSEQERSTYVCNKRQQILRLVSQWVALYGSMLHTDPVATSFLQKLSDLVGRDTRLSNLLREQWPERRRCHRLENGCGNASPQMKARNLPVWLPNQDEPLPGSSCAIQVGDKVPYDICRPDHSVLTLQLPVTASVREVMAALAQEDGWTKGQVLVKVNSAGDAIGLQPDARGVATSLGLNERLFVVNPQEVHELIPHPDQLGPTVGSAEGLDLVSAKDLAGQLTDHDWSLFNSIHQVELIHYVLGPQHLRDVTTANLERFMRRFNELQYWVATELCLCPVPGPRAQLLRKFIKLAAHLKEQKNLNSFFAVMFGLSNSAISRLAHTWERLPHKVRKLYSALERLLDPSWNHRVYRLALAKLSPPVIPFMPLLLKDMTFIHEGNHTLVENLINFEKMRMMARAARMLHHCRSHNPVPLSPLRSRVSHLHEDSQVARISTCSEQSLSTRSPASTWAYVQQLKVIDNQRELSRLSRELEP
# Only a part is listed here, and it is no random draw. The source made the active and inactive calls. Calls follow the shape of the dose curve; as a rule, active = well fitted activation curve with a large enough effect; inconclusive = small, poorly fitted or top-dose-only effect; inactive = no such curve, though single readings can be large or run the other way.
# Target: Rap guanine nucleotide exchange factor 3 (Homo sapiens) (UniProt O95398)
# Assay: qHTS for Agonist of cAMP-regulated guanine nucleotide exchange factor 3 (EPAC1): primary screen; also: nearly all actives have a fitted effect of over 60% in size
# Details: biochemical assay, 100% = response to 6.5 mM cAMP; at 154 µM (top of the series)
# Excerpt: In multi-cellular eukaryotic organisms, the effects of cAMP are transduced by two ubiquitously-expressed intracellular cAMP receptors, the classic protein kinase A/cAMP-dependent protein kinase (PKA/cAPK) and the more recently discovered exchange protein directly activated by cAMP/cAMP-regulated guanine nucleotide exchange factor (EPAC/cAMP-GEF). Both PKA and EPAC are ubiquitously expressed in all tissues, and an increase in intracellular cAMP levels will lead to the activation of both PKA and EPAC. Therefore, careful dissections of the individual role and relative contribution of EPAC and PKA within the overall cAMP signaling in various model systems are critical for further elucidating the mechanism of cAMP signaling. To date no EPAC-specific antagonists and agonist, as well as isoform-specific agonists have been reported, and developing EPAC-specific pharmacological probes to determine the physiological functions that EPAC play in the overall cAMP-mediated signaling remains a major challenge within the research field. Furthermore, identified regulators of EPAC may lead to new mechanism-based therapeutic strategies specifically targeting the EPAC / cAMP-signaling components as EPAC has been implicated to play important roles in major human pathological conditions such as diabetes, heart disease, and cancer.
# This qHTS will be used to screen the Molecular Libraries Small Molecule Repository (MLSMR) as a concentration-titration series using the NCGC unique quantitative screening (qHTS) platform to find activators for EPAC1. In addition, this assay will also be used as a counterscreen for the EPAC2 qHTS. This fluorescent based assay is developed and validated for EPAC1 that measures exchange using EPAC effector Rap1 complex with BODIPY-GDP, a GDP analog with a tethered fluorophores. Activators are identified by monitoring the change in fluorescence signal as the exchanged free BODIPY-GDP has a reduced fluorescence compared to Rap1-bound BODIPY-GDP. Increase in signal (activation) is the desired outcome for the EPAC1 agonist while no activity in this assay is desired for the EPAC2 agonist counterscreen.
# [1] de Rooij, J., Zwartkruis, F. J., Verheijen, M. H., Cool, R. H., Nijman, S. M., Wittinghofer, A., and Bos, J.L. (1998) Nature 396, 474-477
# NIH Chemical Genomics Center [NCGC]
# NIH Molecular Libraries Probe Centers Network [MLPCN]
# Assay Submitter (PI): Xiaodong Cheng, The University of Texas Medical Branch
# Briefly, three uL of reagents (100 nM EPAC1, 250 nM RAP1B-BODIPY-GDP, 50 uM GDP) were dispensed into a 1536-well Greiner black solid-bottom medium binding assay plate. Controls and test compounds (23 nL) were transferred to the plate via a Kalypsys pin tool equipped with a 1536-pin array. The plates were centrifuged at 1,000 rpm for 15 seconds followed by 5 minute incubation at room temperature. The assay plates were read at 5 minute intervals for 30 minutes in the ViewLux plate reader using 480nm excitation and 540nm emission filters. The results were normalized to the agonist positive control of 6.5 mM cAMP.
row,SMILES,activation
1,CC(NC(=O)COC(=O)C(O)(c1ccccc1)c1ccccc1)c1ccccc1 (stereo not given),inactive: -1.62%
2,CN(C)C(=O)Oc1noc2ccccc12,inactive: 10.5%
3,O=c1c2cc([N+](=O)[O-])ccc2[nH]c2c([N+](=O)[O-])cc([N+](=O)[O-])cc12,inactive: 4.06%
4,COC(=O)c1cc2c(s1)N=C(c1ccccc1)N(C)P2(=O)N1CCOCC1 (stereo not given),inactive: -2.15%
5,CC(=O)NC(SC(=S)N(CC(C)C)CC(C)C)C(Cl)(Cl)Cl (stereo not given),inactive: -8.35%
6,Cc1ccc(OP(=O)(Nc2ccccn2)Oc2ccc(C)cc2)cc1,inactive: -0.086%
7,O=C(OC1CN2CCC1CC2)c1ccccc1 (stereo not given),inactive: 3.48%
8,CCC(=O)N1C2C3N(C(=O)CC)C1C1N(C(=O)CC)C(C(N1C(=O)CC)N3C(=O)CC)N2C(=O)CC,inactive: -0.193%
9,CCc1cc(O)c([N+](=O)[O-])c(C)c1[N+](=O)[O-],inactive: -8.6%
10,CC(C)(C)C(=O)NC(Sc1ccccc1)C(Cl)(Cl)Cl (stereo not given),inactive: -10.7%
11,O=P1(Nc2nc3ccc(Cl)cc3s2)COc2ccccc2O1 (stereo not given),inactive: -4.22%
12,CCOc1ccc(C2=NCC(CBr)S2)cc1 (stereo not given),inactive: 4.97%
13,CC(=O)Nc1ccc([As](=O)(O)O)c(O)c1,inactive: -1.71%
14,CC(=O)Nc1ccc(Oc2c([N+](=O)[O-])cc([N+](=O)[O-])cc2[N+](=O)[O-])cc1,inactive: -4.06%
15,N#C/C(=C\c1ccc(N(CCBr)CCBr)cc1)C(N)=O,inactive: 3.19%
16,CC(=O)c1ccc(N2CC2c2ccncc2)cc1 (stereo not given),inactive: -1.62%
17,COC(=O)C1(C)COP(=O)(NCc2ccccc2)OC1 (stereo not given),inactive: 6.03%
18,Cc1ccccc1CN(C)C(=O)COC(=O)C(O)(c1ccccc1)c1ccccc1,inactive: -1.27%
19,C[C@@H]1C=CCP(=O)(Oc2ccccc2)O1 (stereo not given in full),inactive: -3.19%
20,C[C@H]1OP(=O)(Oc2ccccc2)C[C@@H]2O[C@@H]21 (stereo not given in full),inactive: -16.1%
21,O=[As](O)(c1cccc(O)c1)c1cccc(O)c1,inactive: 9.78%
22,Cc1cccc(OCC(=O)OC2CN3CCC2CC3)c1 (stereo not given),inactive: 13.1%
23,COc1cc(C(=O)NCC2(N3CCOCC3)CCCCC2)cc(Cl)c1OC(C)C,inactive: 4.04%
24,O=[As](O)(O)c1cccnc1,inactive: 8.98%
25,CS(=O)(=O)c1ccc(Cl)c(NC(=O)COC(=O)C(O)(c2ccccc2)c2ccccc2)c1,inactive: 7.87%
26,O=C(OC1CN2CCC1CC2)c1ccc(Cl)cc1 (stereo not given),inactive: -3.13%
27,COc1cc(C2NCCC3(OCCO3)C2(C)C)cc(OC)c1OC (stereo not given),inactive: 2.22%
28,CCOP(=O)(Nc1cccc2ccccc12)OCC,inactive: -1.99%

row,SMILES,activation
1,CCCOP(=S)(Nc1nc(N)cc(=O)[nH]1)OCCC,inactive: 8.13%
2,Cc1ccc(NCCc2c([N+](=O)[O-])cc([N+](=O)[O-])cc2[N+](=O)[O-])cc1,inactive: -2.6%
3,Nc1cccc2c([As](=O)(O)O)cccc12,inactive: 5.45%
4,O=C(O)COc1ccc([As](=O)(O)O)cc1[N+](=O)[O-],inactive: 8.52%
5,Nc1ccccc1[As](=O)(O)c1ccccc1,inactive: -3.6%
6,CS(=O)(=O)c1cc([N+](=O)[O-])c2no[n+]([O-])c2c1,inactive: 10.1%
7,CCOP1(=S)c2c(C)nn(CCC#N)c2N=C(c2ccccc2F)N1C (stereo not given),inactive: 6.42%
8,O=P(Nc1nccs1)(c1ccccc1)c1nc2ccccc2s1 (stereo not given),inactive: -3.35%
9,O=P(Nc1nccs1)(Oc1ccccc1)Oc1ccccc1,inactive: 4.16%
10,CN(C)C(=O)c1cc([N+](=O)[O-])cc2c1-c1c(cc([N+](=O)[O-])cc1[N+](=O)[O-])C2=O,inactive: 6.2%
11,O=[N+]([O-])c1ccc2c(c1)nnn2O,inactive: 10.7%
12,CN(C(=O)Cc1ccc(Cl)c(Cl)c1)[C@H]1CC[C@@]2(CCCO2)C[C@@H]1N1CCCC1,inactive: -17.1%
13,N#CCCN(C(=O)COC(=O)C(O)(c1ccccc1)c1ccccc1)c1ccc(F)cc1,inactive: 1.98%
14,CN(C(=O)Cc1ccccc1)[C@@H]1CC[C@]2(CCCO2)C[C@H]1N1CCCC1,inactive: -1.22%
15,CCOP1(=S)c2c(C)nn(CCC#N)c2N=C(c2ccc(F)cc2)N1C (stereo not given),inactive: 7.5%
16,NC(=O)Nc1ccc([As](=O)(O)O)cc1,inactive: -18%
17,O=C(/C=C/c1ccccc1)OC1CN2CCC1CC2 (stereo not given),inactive: 11.9%
18,CCCC1OP(=O)(Nc2ccccc2)OCC1CC (stereo not given),inactive: 6.78%
19,CN(C)C1(CNC(=O)c2ccc(S(C)(=O)=O)cc2)CCCCC1,inactive: 7.79%
20,Cc1nn(-c2ccccc2)c2c1P(=O)(N1CCOCC1)N(C)C(c1ccccc1)=N2 (stereo not given),inactive: 5.96%
21,Cc1ccc(C(=O)OC2CN3CCC2CC3)cc1 (stereo not given),inactive: -2.3%
22,CC1CCC(C(C)C)C(OP(=O)(Nc2ccccn2)c2ccccc2)C1 (stereo not given),inactive: -8.52%
23,NS(=O)(=O)c1cccc(NC(=O)COC(=O)C(O)(c2ccccc2)c2ccccc2)c1,inactive: 2.76%
24,O=P1(Nc2ccc(Br)cn2)COc2ccccc2OC1,inactive: 6.94%
25,Cc1ccc(OCC(=O)OC2CN3CCC2CC3)cc1 (stereo not given),inactive: 0.326%
26,O=[As](O)(c1cccs1)c1cccs1,inactive: -4.57%
27,Nc1cccc([As](=O)(O)c2ccccc2)c1,inactive: -6.2%
